PMC7614367, “Itraconazole inhibits endothelial cell migration by disrupting inositol pyrophosphate-dependent focal adhesion dynamics and cytoskeletal remodeling” (Biomedicine & Pharmacotherapy, 2023)

Chains of the proteins cited; added tags and fusions are not shown. Residues count along the entry.
UniProt Q05397, 2-1052: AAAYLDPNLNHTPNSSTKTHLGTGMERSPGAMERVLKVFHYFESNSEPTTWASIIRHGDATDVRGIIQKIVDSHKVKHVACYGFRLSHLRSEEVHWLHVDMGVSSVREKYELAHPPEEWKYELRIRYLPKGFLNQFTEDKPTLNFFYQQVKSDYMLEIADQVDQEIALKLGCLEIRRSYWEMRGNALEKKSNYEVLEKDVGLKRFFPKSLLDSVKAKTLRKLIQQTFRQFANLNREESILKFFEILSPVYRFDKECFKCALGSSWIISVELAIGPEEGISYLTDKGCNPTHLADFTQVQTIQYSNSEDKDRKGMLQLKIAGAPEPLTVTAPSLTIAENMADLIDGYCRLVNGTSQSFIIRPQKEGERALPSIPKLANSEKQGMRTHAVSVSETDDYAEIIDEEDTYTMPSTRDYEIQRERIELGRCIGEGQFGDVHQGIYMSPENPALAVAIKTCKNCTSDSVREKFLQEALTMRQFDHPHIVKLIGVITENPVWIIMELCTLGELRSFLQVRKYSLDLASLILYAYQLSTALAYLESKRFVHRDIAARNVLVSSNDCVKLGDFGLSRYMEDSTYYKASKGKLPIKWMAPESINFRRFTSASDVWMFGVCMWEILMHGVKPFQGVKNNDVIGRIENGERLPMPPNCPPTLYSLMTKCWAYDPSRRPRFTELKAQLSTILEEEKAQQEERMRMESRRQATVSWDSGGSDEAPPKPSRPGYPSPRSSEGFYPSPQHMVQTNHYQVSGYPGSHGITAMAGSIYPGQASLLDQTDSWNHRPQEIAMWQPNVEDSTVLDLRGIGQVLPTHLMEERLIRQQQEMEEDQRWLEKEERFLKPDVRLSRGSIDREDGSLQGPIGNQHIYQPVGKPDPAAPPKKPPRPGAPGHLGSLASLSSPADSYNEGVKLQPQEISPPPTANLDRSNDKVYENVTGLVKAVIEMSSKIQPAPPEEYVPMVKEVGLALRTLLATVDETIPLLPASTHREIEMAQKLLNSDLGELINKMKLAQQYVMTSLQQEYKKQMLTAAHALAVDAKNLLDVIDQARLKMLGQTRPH

Target: T1, FAK (GST-FAK, flag-FAK) (Homo sapiens, UniProt Q05397)
T1 construct: gene PTK2; full-length FAK, GST- or flag-tagged, produced in HEK293 cells; tags kept; endogenous HUVEC protein also pulled down
Experiment: bead pull-down of GST-FAK by flag-FAK, western blot
Type: binding
Conditions: enhancer of FAK dimerization; FERM domain; compared with InsP6; 4 °C overnight

O=P(O)(O)O[C@H]1[C@@H](OP(=O)(O)O)[C@H](OP(=O)(O)O)[C@@H](OP(=O)(O)OP(=O)(O)O)[C@H](OP(=O)(O)O)[C@H]1OP(=O)(O)O [5-InsP7, 5-diphosphoinositol 1,2,3,4,6-pentakisphosphate]
binding between flag-FAK and GST-FAK: 5-InsP7, but not its nonhydrolyzable analogs 5-PCP and CF2, enhances the formation of FAK dimer
